{"source": "patent US20090317741A1", "about": "“COMPOUND, ACID GENERATOR, RESIST COMPOSITION AND METHOD OF FORMING RESIST PATTERN” (Tokyo Ohka Kogyo Co., Ltd., priority 2006, published 2009)", "experiment": "Evaluation of solubility in resist solvents (PGMEA, PGME, EL)", "settings": "concentration at which the acid generator was completely dissolved", "protocol": "The solution of propylene glycol monomethyl ether acetate (PGMEA), propylene glycol monomethyl ether (PGME), or ethyl lactate (EL) with each compound described above was prepared, while changing the concentration. After the preparation, each solution was stirred, and then the concentration in which each acid generator was completely dissolved was measured."}
{"substance": "di(1-naphthyl)phenylsulfonium nonafluorobutanesulfonate [(B)-2, reference compound]", "values": [{"measurement": "Solubility in EL", "setting": "ethyl lactate", "value": 5, "unit": "% by weight"}, {"measurement": "Solubility in PGMEA", "setting": "propylene glycol monomethyl ether acetate", "value": 2, "unit": "% by weight"}, {"measurement": "Solubility in PGME", "setting": "propylene glycol monomethyl ether", "value": 5, "unit": "% by weight"}]}
